The source of these data is US20110039815A1, “MACROCYCLIC METAL COMPLEXES FOR THEIR USE AS ANTICANCER AGENTS” (priority 2005, published 2011).

Assay [1] deals with ovarian cancer cell line NUTU-19. The assay is described as follows: Cell death / morphology of NUTU-19 cells in six well plates.
The test system of assay [2] is non-cancerous ovarian OVEPI cells. The assay is described as follows: Cell death / morphology of OVEPI cells in six well plates.

In the case of ^Me3TacnRhCl3 [formula 8], the “effect on cell morphology and viability (photos)” value in assay [1] is “deleterious morphology changes and internal vesicle formation and elongation in addition to a loss of cell colony contact”; in assay [2], “close cell contact, good cell attachment and viability, and a lack of deleterious cell morphology changes”.
